Measured values taken from patent US20230414735A1, “NEOANTIGENS AND METHODS OF THEIR USE” (priority 2016, published 2023).

System: HLA-A02:01+ T cells (CD8+ T cells)
Experiment: Immunogenicity assay: CD8+ T cell expansion with peptide-loaded monocyte-derived dendritic cells, multimer/tetramer staining
Type: cell-based, human
Details: HLA-A02:01^+ T cells co-cultured 10 days with peptide-loaded monocyte-derived dendritic cells; initial and validation multimer preparations; shown as examples of positive multimer staining (FIGS. 3-6)
Protocol: Immunogenicity assays are used to test the ability of each test peptide to expand T cells. Mature professional APCs are prepared for these assays in the following way. Monocytes are enriched from healthy human donor PBMCs using a bead-based kit (Miltenyi). Enriched cells are plated in GM-CSF and IL-4 to induce immature DCs. After 5 days, immature DCs are incubated at 37° C. with each peptide for 1 hour before addition of a cytokine maturation cocktail (GM-CSF, IL-1β, IL-4, IL-6, TNFα, PGE1β). Cells are incubated at 37° C. to mature DCs.
After maturation of DCs, PBMCs (either bulk or enriched for T cells) are added to mature dendritic cells with proliferation cytokines. Cultures are monitored for peptide-specific T cells using a combination of functional assays and/or tetramer staining Parallel immunogenicity assays with the modified and parent peptides allowed for comparisons of the relative efficiency with which the peptides expanded peptide-specific T cells.
Tetramer Staining. […] Cells are acquired on a FACS Calibur (Becton Dickinson) instrument, and are analyzed by use of Cellquest software (Becton Dickinson). […]
Immunogenicity assays were carried out to assess whether each peptide can elicit a T cell response by antigen-specific expansion. […] Several peptides from Table 3 were tested for their capacity to elicit CD8^+ T cell responses with multimer readouts as described. […]

Q: With KLVVVGACGV as the sequence, how does the “antigen-specific (multimer-double-positive) CD8^+ T cells, multimer staining” value read?
A: antigen-specificity
